Literature values as cited in US20060251664A1, “Method for the identification of epitopes related to immunogenicity in biopharmaceuticals” (priority 2005, published 2006).

Settings: after treatment (Deisenhammer et al., 2000; Bertolotto et al., 2004); cited from earlier work

## Avonex: marketed IFN-β-1a, glycosylated, expressed in Chinese hamster ovary cells [reference compound]
  patients producing anti-IFN-β neutralizing antibodies: 2-6%
